Literature values as cited in PMC6162689.

Biological target: CA125 (Homo sapiens) (UniProt Q8WXI7)

## Mesothelin (from UniProt Q13421)
  Kd: 5 nM
